Data from patent US5593678A, “Protection of teleost fish” (University of Georgia Research Foundation, priority 1994, dated 1997).

Tested on: NCC (lysis of IM-9 target cells)
Details: 20 mM, 120 minutes, E:T 50:1
Experimental: FIG. 4. Individual and combined effects of phosphatase inhibitors on NCC cytotoxicity, NCC (7×10^5 cells) were incubated with either media (.diamond.), vanadate (Δ) (5 mM). NaF (.smallcircle.) (20 mM), or both vanadate and NaF (.quadrature.) for the indicated time periods before addition to labeled IM-9 target cells.
FIG. 5. Effects of removal of Na3 VO4 on NCC activation. NCC were harvested, incubated for three hours, washed, counted and added to duplicate tubes containing either media alone or media containing 2.5, 5 and 10 mM vanadate. […]
FIG. 6. […] NCC were harvested, incubated for three hours in media, washed, counted and added to duplicate tubes containing media alone or in the presence of 5, 10 and 20 mM NaF. […]
FIG. 7. […] The cells were incubated in media for three hours, washed, counted and added to test tubes containing either media alone or media with 2.5, 5 and 10 mM vanadate. […]
FIG. 8. […] The cells were incubated in media for three hours, washed, counted and added to media or media with 5, 10 and 20 mM NaF. […]
A ^51 Cr release assay was used to determine cytotoxicity. […] This mixture was incubated (25° C.) for 4-6 hours and 100 μl of each supernatant was removed to determine radioactivity (Beckman Biogamma II Counter; Beckman Instruments, Irvine, Calif.). […]

SMILES: [F-].[Na+] [Sodium fluoride, sodium fluoride]
- Percentage of control (NCC cytotoxic activity): 225.8%
